Assay results taken from publication PMC8916116 (The Journal of Experimental Medicine, 2022).

Columns and labels:
[1] = tested on: PDX260 (KRAS G12D PDA) and PDX TM00186 (KRAS G12C NSCLC); test: PDX models, monotherapy; assay type: in vivo, NSG mice; details: equimolar doses: COBI 7.5 mg/kg, TRX-COBI 12 mg/kg, daily IP 25 d
phosphorylated Erk1/2 = test: Western blot for phosphorylated Erk1/2 in iKras cells; assay type: cell-based, mouse; details: without doxycycline 48 h, 100 nM for 6 h

For `O=C(c1ccc(F)c(F)c1Nc1ccc(I)cc1F)N1CC(O)([C@@H]2CCCCN2)C1` [COBI, cobimetinib, reference compound], the “tumor growth relative to vehicle” value [1] was “significantly inhibited tumor growth” and the “inhibition of MEK by phospho-ERK levels in uninduced iKras cells” value (phosphorylated Erk1/2) was “sensitive”.
